{"sequences": {"note": "The chains behind the UniProt entries cited, without tags or fusion partners.", "UniProt P22909, whole entry": "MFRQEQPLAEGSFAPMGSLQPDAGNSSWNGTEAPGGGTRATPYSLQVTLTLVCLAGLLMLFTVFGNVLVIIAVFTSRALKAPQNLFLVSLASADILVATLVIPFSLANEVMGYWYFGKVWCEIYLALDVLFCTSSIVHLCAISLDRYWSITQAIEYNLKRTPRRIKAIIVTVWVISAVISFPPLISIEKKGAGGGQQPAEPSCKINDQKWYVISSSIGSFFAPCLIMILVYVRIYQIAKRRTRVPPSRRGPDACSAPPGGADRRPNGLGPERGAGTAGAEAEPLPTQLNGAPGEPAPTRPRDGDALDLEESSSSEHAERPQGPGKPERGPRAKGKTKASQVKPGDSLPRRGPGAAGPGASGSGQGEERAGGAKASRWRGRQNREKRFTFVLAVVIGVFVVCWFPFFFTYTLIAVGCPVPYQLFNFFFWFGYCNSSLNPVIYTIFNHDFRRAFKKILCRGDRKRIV"}, "source": "patent US5292887A", "about": "“Substituted imidazole derivatives and their preparation and use” (priority 1988, dated 1994)", "molecular_target": "T1, α2-adrenoceptor (Rattus norvegicus, UniProt P22909)", "T1 construct": "In anaesthetized rat, a standard dose of detomidine was administered intravenously; from tissue; host or cells: whole anaesthetized rat (pupil response, in vivo)", "test": "Reversal of detomidine-induced mydriasis in anaesthetized rat (α2-adrenoceptor antagonism)", "format": "in vivo", "conditions": "iv, read-out: α2-antagonism (ED50 vs detomidine)"}
{"smiles": "CCC1(c2cnc[nH]2)Cc2ccccc2C1", "note": "[atipamezole, reference compound]", "values": [{"measurement": "ED50", "result": 3, "unit": "µg/kg"}]}
